The target of experiment [1] is T1, E3 ubiquitin-protein ligase CBL-B (Homo sapiens, UniProt Q13191). To be noted: CD3-positive T cell, dose 3.2-10000 nM, time 75.0 min.
In experiment [2] the target is T1, E3 ubiquitin-protein ligase CBL-B. To be noted: CD3-positive T cell, dose 3.2-10000 nM, time 75.0 min. This is another data set of the same source.

Chains of the proteins cited; added tags and fusions are not shown.
UniProt Q13191, whole entry: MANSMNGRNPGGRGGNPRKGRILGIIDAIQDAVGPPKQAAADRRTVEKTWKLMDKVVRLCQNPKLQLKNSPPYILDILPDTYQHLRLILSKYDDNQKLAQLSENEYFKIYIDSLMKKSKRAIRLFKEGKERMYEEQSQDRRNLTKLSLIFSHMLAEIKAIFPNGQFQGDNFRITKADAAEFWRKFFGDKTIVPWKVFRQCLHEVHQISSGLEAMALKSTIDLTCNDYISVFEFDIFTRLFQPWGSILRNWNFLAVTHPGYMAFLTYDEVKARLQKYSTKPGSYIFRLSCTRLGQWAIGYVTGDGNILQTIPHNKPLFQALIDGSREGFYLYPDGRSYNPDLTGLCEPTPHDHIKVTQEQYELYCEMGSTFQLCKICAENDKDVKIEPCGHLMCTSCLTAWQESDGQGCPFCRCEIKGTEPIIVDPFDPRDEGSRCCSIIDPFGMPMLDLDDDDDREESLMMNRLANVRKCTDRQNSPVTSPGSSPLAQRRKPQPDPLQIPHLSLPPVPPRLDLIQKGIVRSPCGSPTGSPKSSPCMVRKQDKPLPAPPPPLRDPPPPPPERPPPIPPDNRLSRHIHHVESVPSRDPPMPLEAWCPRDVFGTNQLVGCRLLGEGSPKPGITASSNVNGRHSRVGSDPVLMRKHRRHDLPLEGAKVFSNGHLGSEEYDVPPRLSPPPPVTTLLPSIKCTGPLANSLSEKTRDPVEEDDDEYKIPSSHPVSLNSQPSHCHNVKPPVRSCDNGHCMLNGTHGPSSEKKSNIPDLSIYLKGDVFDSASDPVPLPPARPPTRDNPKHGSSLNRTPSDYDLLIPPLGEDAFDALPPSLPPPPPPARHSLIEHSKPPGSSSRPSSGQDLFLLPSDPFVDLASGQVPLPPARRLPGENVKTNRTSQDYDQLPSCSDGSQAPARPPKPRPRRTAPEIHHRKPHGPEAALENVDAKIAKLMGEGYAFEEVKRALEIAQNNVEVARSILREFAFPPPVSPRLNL

For the compound `C[C@H]1CCCN(Cc2cc3c(C(F)(F)F)cn(-c4cccc([C@]5(c6nncn6C)C[C@@H](C)C5)c4)c(=O)c3[nH]2)C1`, the inhibition result in experiment [1] and in experiment [2] was “Dose-dependent-effect” throughout.

The values are drawn from ChEMBL document CHEMBL6177960, “Rational design, optimization, and biological evaluation of novel pyrrolo-pyridone derivatives as potent and orally active Cbl-b inhibitors” (Eur J Med Chem, 2025).
